Ab-91 heavy chain CDR variants: yeast mating affinities

The measurements come from Engelhart et al. 2022 (doi:10.1038/s41597-022-01779-4) through the FLAb antibody collection.

Binding partner: SARS-CoV-2 spike HR2 peptide, sequence PDVDLGDISGINAS.

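Phage display of a naive human antibody library on the peptide gave the parent. In library AAYL51, one, two or three CDR residues were substituted; doubles and triples were drawn at random. AlphaSeq pools MATa yeast showing the antibodies with MATalpha yeast showing the peptide. The frequency of each diploid, read from paired DNA barcodes, reflects how well the two displayed proteins bind. Scores were corrected for input abundance and mapped to Kd with protein pairs of known affinity run in the same pool. The assay was run in three technical replicates.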

The variants keep the light chain, the linker and the frameworks of Ab-91 (scFv order VL, three GGGGS repeats, VH).
VL: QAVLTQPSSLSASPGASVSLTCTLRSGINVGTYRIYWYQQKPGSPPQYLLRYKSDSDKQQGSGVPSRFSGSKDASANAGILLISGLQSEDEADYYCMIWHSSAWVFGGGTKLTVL
VH: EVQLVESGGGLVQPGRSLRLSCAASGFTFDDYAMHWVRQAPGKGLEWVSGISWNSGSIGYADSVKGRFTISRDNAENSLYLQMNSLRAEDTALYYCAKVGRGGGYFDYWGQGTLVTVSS

Changes read parent residue, position, new residue, counted from the first residue of the VH shown.
The Kd shown is the geometric mean over detected replicates; a lower Kd is a better binder.
A pair that was not seen in any replicate is written "no signal"; this usually means weak binding, but a binder can also be missed.
In this assay the parent's reference entry averaged 72 nM; its copy inside this library read 7.5 nM.
Background: pairings of library AAYL51 with three empty control strains gave a value in 21% of cases (median 34 µM, 5th percentile 1.8 µM). Values in that range, when seen in few replicates, are hard to tell from nonspecific mating. The control count says in how many pairings with the empty strains this scFv gave a signal.

Kd (apparent)	seen in	signal with controls	changes
92 µM	3/3	3/9	G50K S55C G56R
190 nM	3/3	0/9	V64Y V99D Y105K
1.3 mM	1/3	4/9	F27P Y32K
330 µM	1/3	1/9	H35E S52P Y105N
no signal	0/3	0/9	M34W K65R V99M
no signal	0/3	0/9	S57P D62A
1.4 µM	3/3	0/9	M34F Y105T
1.4 mM	3/3	7/9	G26D I58A S63E
1.5 µM	2/3	3/9	F29Y W53R S63T
2.9 µM	1/3	1/9	N54V G104S Y105V
no signal	0/3	1/9	N54D G103C
19 µM	1/3	1/9	F29G Y32I G59S
no signal	0/3	0/9	I51R S55C I58F
190 µM	2/3	7/9	F29C D30P H35I
1.7 µM	1/3	0/9	N54G K65W
no signal	0/3	2/9	F29Y A33F I51F
no signal	0/3	1/9	G26L I51Q W53K
21 µM	3/3	3/9	D31H G59N V64C
no signal	0/3	0/9	G50E F106I Y108M
no signal	0/3	0/9	Y32W G104W Y108V
no signal	0/3	0/9	G26P Y60M R101Q
18 µM	3/3	3/9	H35Y D107T Y108K
600 µM	3/3	3/9	H35R N54F R101M
no signal	0/3	2/9	F27C Y60W G103N
6.0 µM	1/3	0/9	Y32G F106D Y108N
no signal	0/3	2/9	S55H D62M K65R
no signal	0/3	0/9	Y32N S55L
110 µM	1/3	2/9	S52W S55K G100A
no signal	0/3	0/9	G26C T28I F106R
14 µM	2/3	6/9	I51H A61R G100R
600 nM	1/3	1/9	F29E G56Y D62E
360 nM	3/3	1/9	T28V N54H I58S
no signal	0/3	0/9	M34R N54G G102R
no signal	0/3	0/9	S52L G104K
42 µM	2/3	5/9	S52F Y60R D107V
46 µM	1/3	2/9	S57N Y60D Y108V
no signal	0/3	1/9	A33W N54K G102F
2.9 µM	1/3	1/9	R101E G104L Y105E
no signal	0/3	0/9	R101V G102A G103M
220 µM	1/3	4/9	G100Y G102K
120 µM	3/3	2/9	H35S W53C F106T
40 µM	1/3	0/9	D31P A33S F106C
no signal	0/3	0/9	D30R K65E V99Y
no signal	0/3	1/9	Y60N F106R
160 µM	1/3	3/9	G56T R101W F106L
110 µM	1/3	1/9	M34P S63E G103D

Repeated from above, the 6 best binders with a signal in all replicates:

| changes | Kd (apparent) | seen in | signal with controls |
|---|---|---|---|
| V64Y V99D Y105K | 190 nM | 3/3 | 0/9 |
| T28V N54H I58S | 360 nM | 3/3 | 1/9 |
| M34F Y105T | 1.4 µM | 3/3 | 0/9 |
| H35Y D107T Y108K | 18 µM | 3/3 | 3/9 |
| D31H G59N V64C | 21 µM | 3/3 | 3/9 |
| G50K S55C G56R | 92 µM | 3/3 | 3/9 |